{
  "sequences": {"note": "Protein sequences, listed by entry. Tags and fused reporters are not part of them. Residues count along the entry.", "UniProt P30926, 22-498": "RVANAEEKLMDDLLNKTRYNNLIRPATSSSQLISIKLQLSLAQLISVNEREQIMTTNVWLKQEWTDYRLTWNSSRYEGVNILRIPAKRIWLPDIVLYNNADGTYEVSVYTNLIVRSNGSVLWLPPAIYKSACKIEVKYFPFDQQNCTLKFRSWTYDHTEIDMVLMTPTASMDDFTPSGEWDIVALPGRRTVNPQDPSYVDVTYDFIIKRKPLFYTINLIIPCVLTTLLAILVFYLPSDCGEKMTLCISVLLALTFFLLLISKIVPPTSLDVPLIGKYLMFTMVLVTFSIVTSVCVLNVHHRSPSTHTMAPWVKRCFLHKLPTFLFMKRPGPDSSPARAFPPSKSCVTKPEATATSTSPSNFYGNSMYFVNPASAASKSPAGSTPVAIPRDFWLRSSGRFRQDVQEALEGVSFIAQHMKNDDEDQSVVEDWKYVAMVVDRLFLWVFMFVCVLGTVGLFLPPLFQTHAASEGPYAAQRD", "UniProt P32297, 32-505": "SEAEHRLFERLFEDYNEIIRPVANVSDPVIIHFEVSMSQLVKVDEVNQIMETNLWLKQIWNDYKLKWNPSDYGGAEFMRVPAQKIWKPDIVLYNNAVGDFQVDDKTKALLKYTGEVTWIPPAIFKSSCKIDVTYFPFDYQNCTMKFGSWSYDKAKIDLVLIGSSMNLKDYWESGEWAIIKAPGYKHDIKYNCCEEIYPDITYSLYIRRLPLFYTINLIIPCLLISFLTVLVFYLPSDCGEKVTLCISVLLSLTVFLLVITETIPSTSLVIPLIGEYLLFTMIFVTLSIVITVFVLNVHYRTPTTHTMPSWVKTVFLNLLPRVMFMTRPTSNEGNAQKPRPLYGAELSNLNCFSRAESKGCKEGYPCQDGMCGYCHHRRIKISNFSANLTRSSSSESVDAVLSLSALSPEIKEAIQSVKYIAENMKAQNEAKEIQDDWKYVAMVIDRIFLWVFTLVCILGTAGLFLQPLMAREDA", "UniProt P17787, 26-502": "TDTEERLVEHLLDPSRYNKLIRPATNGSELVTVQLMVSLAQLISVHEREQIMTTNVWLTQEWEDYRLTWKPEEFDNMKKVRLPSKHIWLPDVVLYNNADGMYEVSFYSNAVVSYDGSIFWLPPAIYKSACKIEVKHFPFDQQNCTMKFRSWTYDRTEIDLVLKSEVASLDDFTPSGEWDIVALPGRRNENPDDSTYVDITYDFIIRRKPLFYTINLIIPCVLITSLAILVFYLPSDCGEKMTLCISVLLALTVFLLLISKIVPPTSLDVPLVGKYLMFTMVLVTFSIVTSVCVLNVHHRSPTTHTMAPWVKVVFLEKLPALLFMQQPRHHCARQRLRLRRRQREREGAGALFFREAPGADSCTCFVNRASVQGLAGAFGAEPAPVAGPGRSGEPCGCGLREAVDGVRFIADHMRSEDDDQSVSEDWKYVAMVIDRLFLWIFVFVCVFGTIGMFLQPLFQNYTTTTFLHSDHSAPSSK"},
  "source": "patent US20020016370A1",
  "about": "“Exo-R-mecamylamine formulation and use in treatment” (priority 1998, published 2002)",
  "key": {"human α3β4 receptors": {"target": "T1, human α3β4 receptors (Homo sapiens, UniProt P30926+P32297)", "T1 construct": "expressed in transfected cells; host or cells: Xenopus laevis oocytes injected with cRNA", "test": "Two-electrode voltage clamp, receptors expressed in Xenopus oocytes", "format": "cell-based", "conditions": "no further recovery afterwards"}, "human α3β2 receptors": {"target": "T2, human α3β2 receptors (Homo sapiens, UniProt P17787+P32297)", "T2 construct": "expressed in transfected cells; host or cells: Xenopus laevis oocytes injected with cRNA", "test": "Two-electrode voltage clamp, receptors expressed in Xenopus oocytes", "format": "cell-based", "conditions": "5 μM"}},
  "data": [
    {"smiles": "CN[C@@]1(C)[C@@H]2CC[C@@H](C2)C1(C)C", "note": "[exo-S-mecamylamine]", "values": [
      {"measurement": "fast phase of recovery, average duration", "setting": "human α3β4 receptors", "value": 19, "unit": "min"},
      {"measurement": "voltage dependence of the off rate", "setting": "human α3β2 receptors", "value": "changed significantly"}
    ]}
  ]
}
